Paper PMC3280428 (Journal of Molecular Biology, 2011)

By UniProt entry, the sequences of proteins in these tests, tags left out. Residues count along the entry.
UniProt Q9H9B1, 1126-1243 limits assumed: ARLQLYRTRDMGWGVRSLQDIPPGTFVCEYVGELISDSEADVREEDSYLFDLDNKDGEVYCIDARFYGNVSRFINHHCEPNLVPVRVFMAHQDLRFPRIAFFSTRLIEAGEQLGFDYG

Target: GLP (SET domain) (Homo sapiens, UniProt Q9H9B1)
Experiment: Methylation inhibition assay, GLP SET domain, H3 peptide
Format: biochemical

## COc1cc2nc(N3CCCN(C)CC3)nc(NC3CCN(Cc4ccccc4)CC3)c2cc1OC [BIX-01294]
  IC50: 0.25 µM
